Data: patent US20040138241A1, “Novel use of arylethenesulfonamide derivative” (priority 2001, published 2004)

Columns and labels:
[1] = test system: isolated rabbit bladder base preparations
[2] = test system: urethral pressure in anesthetized dogs; assay: ET-1 induced increase of urethral pressure in the presence of α1 receptor blocker in anesthetized dog; conditions: in vivo, iv
Protocol: A urethral pressure profile (UPP) was recorded according to the same operation method as in Test Example 3 .
Thirty minutes thereafter, the same amount of tamsulosin hydrochloride (10 μg/kg i.v.) was again intravenously administered.

[3] = test system: isolated rabbit urethra preparations
[4] = test system: patients with prostatic cancer accompanied with urinary dysfunction; conditions: human, in vivo, po
[5] = test system: isolated rabbit prostate preparations
[6] = test system: prostatic urethral pressure in anesthetized dogs; conditions: dog, in vivo, iv
Protocol: After waiting for stabilization of hemodynamics following the operation, the balloon was fixed to the prostatic urethra and expanded, and a prostatic urethral pressure (PUP) was measured from a change in pressure within the balloon.
ET-1 (from 0.006 to 0.8 μg/kg i.a., molar concentration: from 0.0025 to 0.321 nmol/kg i.a.) and phenylephrine hydrochloride (from 0.06 to 8 μg/kg i.a.; molar concentration: from 0.307 to 39.3 nmol/kg i.a.) were locally administered, thereby comparing the dose-response curve of an increasing action of PUP by the drugs.
In the experiments, dogs in which a degree of increase of PUP was observed 40 cmH2O or more in the pre-contraction with phenylephrine hydrochloride (8 μg/kg i.a.) were used.

[7] = test system: urethral pressure in anesthetized dogs; conditions: dog, in vivo, 1 mg/kg
Excerpt: Male beagle dogs (body weight: from 8 to 13 kg) were subjected to artificial ventilation under the anesthesia with pentobarbital, a catheter was inserted into a left femoral artery for measurement of blood pressure and heart rate and a left femoral vein for administration of drug. A catheter for measurement of urethral pressure (from 8 to 10Fr, 2 holes, manufactured by Create Medic Co., Ltd.) was inserted from an external urethral meatus toward urinary bladder. An automatic syringe pump was connected with one end of the catheter, and a pressure transducer was connected with the other end thereof. […] At the same time, by drawing out the catheter from the urinary bladder into the external urethral meatus at a rate of 25 mm/min by an automatic drawing unit, the pressure was measured and recorded throughout urethra as a urethral pressure profile (UPP) as shown in FIG. 6.
In the blood pressure-response by ET-1 since the pressure increased after a transient reduction of pressure, measurement of the urethral pressure was started about 3 minutes after the administration. On the other hand, as phenylephrine hydrochloride caused an increase of pressure immediately after the administration, measurement of the urethral pressure was started immediately after the administration. […]

COc1ccccc1Oc1c(NS(=O)(=O)C=Cc2ccccc2)nc(-c2ncccn2)nc1OC [Compound 1, N-[6-methoxy-5-(2-methoxyphenoxy)-2-(pyrimidin-2-yl)-pyrimidin-4-yl]-2-phenylethenesulfonamide]
pA2 value against ET-1 induced contraction [1]: 6.6
slope (Schild) [1]: 1.32
inhibition of increasing action of UPP by ET-1 in the presence of tamsulosin hydrochloride [2]: completely inhibited
pA2 value against ET-1 induced contraction [3]: 6.7
slope (Schild) [3]: 0.82
Change of I-PSS: Deteriorated, number of cases/total number of cases [4]: 0/10
Change of I-PSS: Deteriorated, response rate [4]: 0%
Change of I-PSS: Improved, number of cases/total number of cases [4]: 8/10
Change of I-PSS: Improved, response rate [4]: 80%
Change of I-PSS: Not changed, number of cases/total number of cases [4]: 2/10
Change of I-PSS: Not changed, response rate [4]: 20%
reduction rate of I-PSS [4]: 31.7 ±7.9%
pA2 value against ET-1 induced contraction [5]: 6.5
slope (Schild) [5]: 1.54
IC50 value of inhibition of increase of PUP by ET-1 [6]: 0.13 ± 0.07 mg/kg
inhibition of increasing action of UPP due to intravenous ET-1 [7]: completely inhibited
